# Measurements from patent publication US5512269A, “Method of treating retained pulmonary secretions” (priority 1993, dated 1996).
# Columns and labels:
# [1] = tested on: normal airway epithelium
# [2] = tested on: canine trachea airway surface liquid; details: nebulized 50 μM, 0.7 ml delivered over 6 minutes; based on previous work
# Description: 1. The Animal Model: The model developed employed 30 kg male dogs that were anesthetized with intravenous pentobarbital and maintained on a intravenous infusion of normal saline at 75 cc/hour. The dogs were intubated. Ventilatory support was provided by a Harvard™ piston pump. Adequate ventilation and oxygenation were documented by arterial blood gas studies. Peak airway pressures (PAP) were measured and continuous monitoring of hemoglobin saturation was accomplished by pulse oximetry.
# Drug and vehicle were delivered through the endotracheal tube. The drug was nebulized employing a Pulmo-Aid™ Compressor and a DeVilbiss™ nebulizer. The drug (50 μM; 3 ml) in a saline vehicle or the saline vehicle alone (control) was nebulized for 6 minutes during which 0.7 ml thereof was delivered to the animal. […] After 6 minutes, a clean and dry nebulizer was exchanged for the test nebulizer containing the drug or vehicle. The investigators were blinded as to whether drug or vehicle was given.
# 2. Measurements of airway fluid: Airway liquid measurements were made by applying dry preweighed filter paper to the cartilaginous portions of the airway for 20 seconds. […] In order to account for evaporative losses from the filter papers when exposed to room air, the time required to place the papers on the scales and perform the initial weighing was recorded. […] A regression line was calculated. […]
substance,measurement,setting,value
duramycin,dose at which resistance across the tissue began to fall (indication of toxicity),[1]; dose response study,about 2×10^-6 M
same,tissue damage: ability to respond to ATP and forskolin after duramycin treatment,[1]; duramycin-treated normal tissues,not significantly damaged
same,concentration of duramycin achieved in the airway,[2],about 3×10^-7 M
